Data as given in publication PMC4546118 (SpringerPlus, 2015).

Assay: Pharmacokinetics of VCM after intravenous administration to control and PN rats
Conditions: PN rats (parenteral nutrition for 9 days), 5 mg/kg intravenous bolus, two-compartment model, plasma LC/MS/MS, mean of n = 4

## CN[C@H](CC(C)C)C(=O)N[C@H]1C(=O)N[C@@H](CC(N)=O)C(=O)N[C@H]2C(=O)N[C@H]3C(=O)N[C@H](C(=O)N[C@H](C(=O)O)c4cc(O)cc(O)c4-c4cc3ccc4O)[C@H](O)c3ccc(c(Cl)c3)Oc3cc2cc(c3O[C@@H]2O[C@H](CO)[C@@H](O)[C@H](O)[C@H]2O[C@H]2C[C@](C)(N)[C@H](O)[C@H](C)O2)Oc2ccc(cc2Cl)[C@H]1O [VCM, vancomycin]
  t1/2β (elimination half-life): 1.29 h
